Source: patent US20130084328A1, “METHYLATED CODING AND NON-CODING RNA GENES AS DIAGNOSTIC AND THERAPEUTIC TOOLS FOR HUMAN MELANOMA” (Sanford-Burnham Medical Research Institute, priority 2011, published 2013)

Tests used:
Type in all cases: cell-based, human
WM1552C melanoma cells = test: qRT-PCR validation in WM1552C/34b versus WM1552C/VO cells; details: WM1552C/34b cells
Description: Total RNA was isolated by the Trizol method (Invitrogen/Life Technologies) with subsequent quantification and integrity analysis performed using an Agilent 2100 Bioanalyzer (Agilent Technologies, Santa Clara, Calif., USA). Total RNA (100 ng) was reverse transcribed using a High Capacity cDNA kit (Applied Biosystems/Life Technologies), and quantitative reverse-transcription PCR was carried out using TaqMan miRNA or mRNA Assays or SYBR Green mRNA Assays and a 7500 Real-Time PCR System (Applied Biosytems/Life Technologies) in accordance with the manufacturer's protocols. SYBR Green primers include CDC42 (CDC42 qPCR For-CTGCACCTAC CCACATGCAC TCGT [SEQ ID NO:19] and CDC42 qPCR Rev-TTAACTAGTA CTGGGAGGGG GAAGGG [SEQ ID NO:20]), FN1 (FN1 qPCR For-GGCTGACAGA GAAGATTCCC GAGAG [SEQ ID NO:21] and FN1 qPCR Rev-CCAGTTTAGA TGGATCTTGG CAGAGAGAC [SEQ ID NO:22]), and THBS2 (THBS2 qPCR For-TTACCGCTTC GTGCGCTTTG AC [SEQ ID NO:23] and THBS2 qPCR Rev-AACAGCGTGC CCCTGGACTT G [SEQ ID NO:24]). SDS1.2.3 software (Applied Biosystems/Life Technologies) was used for comparative Ct analysis, with RNU48, GAPDH, or β-actin serving as the endogenous controls.
Oligonucleotides complimentary to the hsa-miR-34b genomic sequences were constructed (miR-34b pre For-GTGCTCGGTT TGTAGGCAGT G [SEQ ID NO:25] and miR-34b pre Rev-GTGCCTTGTT TTGATGGCAG TG [SEQ ID NO:26]), containing HindIII and BamHI sites on their respective 5′ and 3′ ends, then amplified from melanocyte genomic DNA (Amplitaq Gold, Applied Biosystems/Life Technologies). The product was then TOPO cloned into pCR4-TOPO (Invitrogen/Life Technologies). The vector construct was sequenced and the pre-hsa-miR-34b fragment was sub-cloned into pcDNA4/H1-3TetR using the HindIII and BamHI sites to create pcDNA4/H1-3TetR/miR-34b. […] The following morning, cells were selected with 600 μg/mL Zeocin for the following 15 days.

WM1552C cells [1] = test: growth (proliferation) assay, miR-34b; details: WM1552C/34b vs WM1552C and WM1552C/VO, to 96 hrs
Description: Exponentially growing cells were trypsinized and counted with the help of a Countess cell counter (Invitrogen/Life Technologies) and seeded at 10^4 cells/cm^2 (0.1×10^6 cells/35-mm petri dish), which was taken as the initial value (N0) for all growth kinetics measurements. Cells were harvested at 24-hrs intervals up to 72 hrs by trypsinization. A minimum of 6 observations spread over 2 independent experiments were taken for determining the proliferation rate ‘pR’:
Where N0=number of cells at 0 h, and Nt=number of cells at time ‘t’. The mean doubling time of untreated cells was calculated from the exponential region of the growth curves, in this case between 24 hrs and 72 hrs.

WM1552C cells [2] = test: Matrigel invasion assay, miR-34b; details: WM1552C/34b vs WM1552C and WM1552C/VO, 48 hrs
Description: BD BioCoat™ growth factor reduced insert plates (Matrigel™ Invasion Chamber 12 well plates) were prepared by rehydrating the BD Matrigel™ matrix coating in the inserts with 0.5 ml of culture medium for 2 hrs at 37° C. The rehydration solution was carefully removed from the inserts, 0.75 mL Complete Tu medium containing chemoattractant (1% FBS) was added to the lower wells of the plate, and 0.5 mL of cell suspension (1×10^4 cells, in serum-free medium) was added to each insert well. […] Invasion assay plates were incubated for 48 hrs at 37° C. Following incubation, the non-invading cells were removed by scrubbing the upper surface of the insert. The cells on the lower surface of the insert were stained with crystal violet and each trans-well membrane mounted on a microscopic slide for visualization and analysis. The slides were scanned using the Scanscope digital slide scanner, and the number of cells migrating was counted using Aperio software.

WM1552C cells [3] = test: cell adhesion assay, miR-34b; details: WM1552C/34b vs WM1552C/VO, from 15 minutes after plating
Description: Trypsinized cells were counted, and 50,000 cells per well were seeded into 96-well plates. At 5, 15, and 30 min after seeding, floating cells were aspirated by rinsing the wells with PBS. The remaining cells in the wells were fixed and stained with 0.5% crystal violet in 50% methanol. The stain in the fixed cells was dissolved with acetic acid, and cell density was determined spectrophotometrically by measuring absorbance at OD560. Each sample was assayed in triplicate at each time point, and each experiment was repeated twice.

miR-34b: nucleic acid exemplified by SEQ ID NO:2 (CAAUCACUAACUCCACUGCCAU); stably expressed in WM1552C from pcDNA4/H1-3TetR/miR-34b (WM1552C/34b) (CAAUCACUAACUCCACUGCCAU)
DKK1 expression lower than in WM1552C/VO cells (WM1552C melanoma cells; Taqman qRT-PCR): ~10 fold | miR-140 expression higher compared to WM1552C/VO cells (WM1552C melanoma cells; qRT-PCR): ~3 fold | CDC42 expression lower relative to vector only control cells (WM1552C melanoma cells; quantitative RT-PCR): 90% | FN1 expression lower relative to vector only control cells (WM1552C melanoma cells; quantitative RT-PCR): ~70% | proliferation (WM1552C cells [1]): decreased proliferation | cell invasion: migrated slower (WM1552C cells [2]): 46% | cell adhesion (WM1552C cells [3]): decreased cell adhesion
